Consider eleven compounds from patent publication US11497752B2, “Compounds and uses thereof” (Foghorn Therapeutics Inc., priority 2018, dated 2022).

Protein sequences, listed by entry. Tags and fused reporters are not part of them.
UniProt P51531, whole entry: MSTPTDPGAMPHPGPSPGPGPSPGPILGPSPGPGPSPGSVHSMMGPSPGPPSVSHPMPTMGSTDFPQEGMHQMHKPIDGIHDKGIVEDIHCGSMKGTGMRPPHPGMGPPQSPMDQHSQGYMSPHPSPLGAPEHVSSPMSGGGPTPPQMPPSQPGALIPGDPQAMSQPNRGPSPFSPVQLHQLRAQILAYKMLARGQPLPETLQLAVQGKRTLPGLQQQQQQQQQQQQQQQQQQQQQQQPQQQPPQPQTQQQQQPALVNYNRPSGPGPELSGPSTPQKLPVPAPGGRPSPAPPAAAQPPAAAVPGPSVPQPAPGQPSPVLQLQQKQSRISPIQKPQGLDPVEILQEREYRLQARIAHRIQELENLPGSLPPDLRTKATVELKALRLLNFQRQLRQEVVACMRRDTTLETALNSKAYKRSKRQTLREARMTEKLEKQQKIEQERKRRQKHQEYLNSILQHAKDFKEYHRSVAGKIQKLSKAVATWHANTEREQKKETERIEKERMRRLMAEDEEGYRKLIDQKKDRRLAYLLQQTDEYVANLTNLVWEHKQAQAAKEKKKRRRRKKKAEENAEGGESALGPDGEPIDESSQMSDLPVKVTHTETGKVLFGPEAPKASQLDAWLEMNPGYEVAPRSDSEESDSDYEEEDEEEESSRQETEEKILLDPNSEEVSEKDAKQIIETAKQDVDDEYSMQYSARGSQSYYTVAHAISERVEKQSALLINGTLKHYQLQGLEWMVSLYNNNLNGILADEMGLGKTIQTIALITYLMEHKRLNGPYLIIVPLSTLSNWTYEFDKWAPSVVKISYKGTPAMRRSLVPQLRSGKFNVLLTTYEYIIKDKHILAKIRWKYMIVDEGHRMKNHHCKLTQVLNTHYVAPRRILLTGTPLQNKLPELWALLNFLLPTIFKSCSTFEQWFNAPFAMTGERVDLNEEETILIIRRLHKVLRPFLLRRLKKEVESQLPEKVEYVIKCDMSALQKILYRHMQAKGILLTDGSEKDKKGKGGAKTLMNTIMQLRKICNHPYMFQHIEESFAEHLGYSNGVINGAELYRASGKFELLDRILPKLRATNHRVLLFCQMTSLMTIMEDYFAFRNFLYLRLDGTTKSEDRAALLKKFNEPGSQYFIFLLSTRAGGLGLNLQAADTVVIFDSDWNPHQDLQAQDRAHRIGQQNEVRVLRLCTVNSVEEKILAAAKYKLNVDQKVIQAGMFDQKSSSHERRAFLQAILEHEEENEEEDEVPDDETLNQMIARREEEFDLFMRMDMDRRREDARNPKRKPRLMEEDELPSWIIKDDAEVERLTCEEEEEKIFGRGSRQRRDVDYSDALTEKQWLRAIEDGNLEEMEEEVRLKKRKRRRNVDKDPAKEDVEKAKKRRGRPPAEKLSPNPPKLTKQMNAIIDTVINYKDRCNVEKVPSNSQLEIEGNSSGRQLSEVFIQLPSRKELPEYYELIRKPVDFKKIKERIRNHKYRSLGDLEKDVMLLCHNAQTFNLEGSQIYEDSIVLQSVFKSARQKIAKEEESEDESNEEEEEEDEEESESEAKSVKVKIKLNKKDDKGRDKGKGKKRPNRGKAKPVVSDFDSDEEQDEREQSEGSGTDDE
UniProt P51532, whole entry: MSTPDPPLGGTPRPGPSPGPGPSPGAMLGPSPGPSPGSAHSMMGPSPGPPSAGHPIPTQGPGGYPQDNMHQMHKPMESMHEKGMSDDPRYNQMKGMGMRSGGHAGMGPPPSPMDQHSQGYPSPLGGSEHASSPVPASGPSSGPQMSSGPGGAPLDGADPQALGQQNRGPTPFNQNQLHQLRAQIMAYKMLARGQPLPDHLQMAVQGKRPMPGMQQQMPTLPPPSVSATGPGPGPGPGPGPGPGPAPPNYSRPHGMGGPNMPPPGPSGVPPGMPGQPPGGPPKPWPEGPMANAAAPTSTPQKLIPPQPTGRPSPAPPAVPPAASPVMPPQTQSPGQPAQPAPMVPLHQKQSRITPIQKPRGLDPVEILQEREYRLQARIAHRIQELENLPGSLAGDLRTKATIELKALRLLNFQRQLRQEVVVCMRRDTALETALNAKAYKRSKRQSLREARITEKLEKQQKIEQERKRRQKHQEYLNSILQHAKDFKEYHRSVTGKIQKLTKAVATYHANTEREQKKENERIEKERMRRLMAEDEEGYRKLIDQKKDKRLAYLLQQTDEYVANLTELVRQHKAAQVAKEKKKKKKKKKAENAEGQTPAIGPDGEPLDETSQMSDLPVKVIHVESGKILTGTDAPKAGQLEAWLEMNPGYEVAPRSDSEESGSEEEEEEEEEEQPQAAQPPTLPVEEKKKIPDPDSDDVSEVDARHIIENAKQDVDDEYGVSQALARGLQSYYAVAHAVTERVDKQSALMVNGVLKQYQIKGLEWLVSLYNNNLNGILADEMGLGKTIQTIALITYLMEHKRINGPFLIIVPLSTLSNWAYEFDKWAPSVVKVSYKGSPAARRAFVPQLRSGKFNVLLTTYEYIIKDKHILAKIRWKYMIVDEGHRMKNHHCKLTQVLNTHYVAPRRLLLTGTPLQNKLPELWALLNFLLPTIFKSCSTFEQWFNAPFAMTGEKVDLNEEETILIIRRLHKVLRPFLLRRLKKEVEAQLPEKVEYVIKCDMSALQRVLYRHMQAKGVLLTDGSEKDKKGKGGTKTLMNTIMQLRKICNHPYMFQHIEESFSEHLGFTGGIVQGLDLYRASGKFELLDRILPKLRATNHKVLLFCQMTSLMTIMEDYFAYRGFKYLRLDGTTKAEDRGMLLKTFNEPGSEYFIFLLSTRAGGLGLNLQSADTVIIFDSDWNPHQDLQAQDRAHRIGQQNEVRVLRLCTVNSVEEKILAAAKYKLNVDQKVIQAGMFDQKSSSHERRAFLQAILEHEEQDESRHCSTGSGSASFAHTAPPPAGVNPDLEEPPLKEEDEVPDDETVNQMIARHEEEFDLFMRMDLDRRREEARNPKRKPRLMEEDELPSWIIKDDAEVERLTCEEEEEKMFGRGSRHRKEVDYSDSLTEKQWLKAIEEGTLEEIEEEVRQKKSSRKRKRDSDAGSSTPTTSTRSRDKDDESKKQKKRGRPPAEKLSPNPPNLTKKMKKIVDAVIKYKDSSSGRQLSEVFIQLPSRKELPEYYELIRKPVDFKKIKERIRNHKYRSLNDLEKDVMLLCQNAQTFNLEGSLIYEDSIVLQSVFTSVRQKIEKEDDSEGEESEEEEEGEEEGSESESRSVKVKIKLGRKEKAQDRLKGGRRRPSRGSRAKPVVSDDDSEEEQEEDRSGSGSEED

One experiment has as its target BRM (Homo sapiens, UniProt P51531). In words: ATPase catalytic activity of BRM (ADP-Glo in vitro biochemical assay).
The next experiment concerns the target BRG-1 (Homo sapiens, UniProt P51532). Kind of experiment: ATPase catalytic activity of BRG-1 (ADP-Glo in vitro biochemical assay). The settings on record: for BRG1 Max % Inhibition: Table 5.

A value given as a limit tells only on which side of the number the result lay.

Usually IC50 stands for the point on the concentration scale where inhibition reaches its midpoint. `CSCC[C@H](NC(=O)c1ccc(N)cc1)C(=O)Nc1nc(-c2ccccc2)cs1` [Compound 52, 4-amino-N-[(1S)-3-methylsulfanyl-1-[(4-phenylthiazol-2-yl)carbamoyl]propyl]benzamide]: the IC50 at BRM was less than 1 µM.

Take `CCC[C@H](NC(=O)c1ccccc1)C(=O)Nc1nc(-c2ccccc2)cs1` [Compound 51, N-[(1S)-1-[(4-phenylthiazol-2-yl)carbamoyl]butyl]benzamide]: the “BRG1 Max % Inhibition” value on BRG-1 is listed as more than 80%. In addition, the “BRM Max % Inhibition” value at BRM (Table 5) is recorded as more than 90%.

As for `CC(C)CC[C@H](NC(=O)c1ccccc1)C(=O)Nc1nc(-c2ccccc2)cs1` [Compound 46, N-[(1S)-4-methyl-1-[(4-phenylthiazol-2-yl)carbamoyl]pentyl]benzamide], the “BRG1 Max % Inhibition” value on BRG-1 is on record as more than 70%. Also, at BRM (Table 5), the “BRM Max % Inhibition” value is listed as more than 60%.

Regarding `CSCC[C@H](NC(=O)c1ccc(O)cc1)C(=O)Nc1nc(-c2ccccc2)cs1` [Compound 53, 4-hydroxy-N-[(1S)-3-methylsulfanyl-1-[(4-phenylthiazol-2-yl)carbamoyl]propyl]benzamide], the “BRG1 Max % Inhibition” value on BRG-1 is recorded as more than 90%. Besides, the “BRM Max % Inhibition” value at BRM (Table 5) was more than 95%.

Turning to `CSCC[C@H](NC(=O)c1ccc(N)cc1)C(=O)Nc1nc(-c2cccc(-c3ccncc3)c2)cs1` [Compound 87, (S)-4-amino-N-(4-(methylthio)-1-oxo-1-((4-(3-(pyridin-4-yl)phenyl)thiazol-2-yl)amino)butan-2-yl)benzamide], the IC50 against BRM is less than 0.1 µM. In addition, the “BRM Max % Inhibition” value at BRM (Table 6) is reported as more than 95%.

`CSCC[C@H](NC(=O)c1cccs1)C(=O)Nc1nc(-c2ccccc2)cs1` [Compound 58, N-[(1S)-3-methylsulfanyl-1-[(4-phenylthiazol-2-yl)carbamoyl]propyl]thiophene-2-carboxamide] came in with an IC50 against BRM of 1 to 10 µM.

On to `O=C(N[C@@H](CCc1ccccc1)C(=O)Nc1nc(-c2ccccc2)cs1)c1ccccc1` [Compound 49, N-[(1S)-3-phenyl-1-[(4-phenylthiazol-2-yl)carbamoyl]propyl]benzamide], for which, at BRG-1, the “BRG1 Max % Inhibition” value is on record as more than 30%. In addition, the “BRM Max % Inhibition” value at BRM (Table 5) is listed as more than 50%.

Take `C[C@H](NC(=O)c1cccc(S(=O)(=O)N(C)C)c1)C(=O)Nc1nc(-c2ccccc2)cs1` [Compound 12, (S)-3-(N,N-dimethylsulfamoyl)-N-(1-oxo-1-((4-phenylthiazol-2-yl)amino)propan-2-yl)benzamide]: at BRG-1, the IC50 is more than 10 µM and the “BRG1 Max % Inhibition” value is listed as more than 60%. On BRM, this compound displayed a half-maximal inhibitory concentration (IC50) of 1 to 10 µM. Further, the “BRM Max % Inhibition” value on BRM (Table 5) is more than 80%.

Turning to `CSCC[C@H](NC(=O)c1ccccc1N)C(=O)Nc1nc(-c2ccccc2)cs1` [Compound 63, 2-amino-N-[(1S)-3-methylsulfanyl-1-[(4-phenylthiazol-2-yl)carbamoyl]propyl]benzamide], the half-inhibitory concentration (IC50) against BRM is more than 10 µM.

The compound `CC[C@H](NC(=O)c1ccccc1)C(=O)Nc1nc(-c2ccccc2)cs1` [Compound 45, N-[(1S)-1-[(4-phenylthiazol-2-yl)carbamoyl]propyl]benzamide] had an IC50 against BRM of more than 10 µM.

`CSCC[C@@H](NC(=O)c1ccc(N)cc1)C(=O)Nc1nc(-c2cccc(-c3ccncc3)c2)cs1` [Compound 155, (R)-4-amino-N-(4-(methylthio)-1-oxo-1-((4-(3-(pyridin-4-yl)phenyl)thiazol-2-yl)amino)butan-2-yl)benzamide] returned a concentration for half-maximal inhibition (IC50) against BRM of 0.1 to 1 µM.
